Values quoted from earlier work in article PMC9316761, “Thiosemicarbazide-Substituted Coumarins as Selective Inhibitors of the Tumor Associated Human Carbonic Anhydrases IX and XII” (Molecules, 2022).

By UniProt entry, the sequences of proteins in these tests, tags left out. Residues count along the entry.
UniProt O43570, 25-354: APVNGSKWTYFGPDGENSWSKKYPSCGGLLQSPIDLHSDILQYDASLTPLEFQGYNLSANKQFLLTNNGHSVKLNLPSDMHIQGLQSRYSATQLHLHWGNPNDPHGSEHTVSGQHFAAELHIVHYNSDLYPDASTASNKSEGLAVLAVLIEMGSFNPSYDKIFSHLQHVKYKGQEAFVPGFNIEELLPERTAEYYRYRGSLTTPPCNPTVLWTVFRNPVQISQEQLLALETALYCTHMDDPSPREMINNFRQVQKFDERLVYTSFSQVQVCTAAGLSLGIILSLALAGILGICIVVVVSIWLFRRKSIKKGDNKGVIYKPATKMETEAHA

Columns and labels:
[1] = target: hCA XII (Homo sapiens, UniProt O43570); settings: read-out: hCA XII (Ki; nM); reference coumarin; cited from earlier work
[2] = target: T1, hCA IX (Homo sapiens, UniProt Q16790); parameters: method as in PMID 19206230; settings: cited from earlier work
T1 construct: made in house

Q: Which Ki [1] does the source give for `O=c1ccc2ccccc2o1` [COU, coumarin] here?
A: > 10000 nM

Q: And the Ki [2]?
A: > 10000 nM
